According to PubChem BioAssay AID651560 (Sanford-Burnham Center for Chemical Genomics, 2012):
Only a part is listed here, and it is no random draw. The source made the active and inactive calls.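 Rule for the calls: active = compounds that cut the enzyme signal by at least half of the control window in the single-dose screen; inactive = the rest.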

Chains of the proteins cited; added tags and fusions are not shown.
UniProt P24666, whole entry: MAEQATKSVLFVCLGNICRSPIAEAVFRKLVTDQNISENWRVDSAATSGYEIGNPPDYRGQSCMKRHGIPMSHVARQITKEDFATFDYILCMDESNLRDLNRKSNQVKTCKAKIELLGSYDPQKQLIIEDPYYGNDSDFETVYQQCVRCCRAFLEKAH

Each molecule was assayed against Low molecular weight phosphotyrosine protein phosphatase (Homo sapiens) (UniProt P24666) (assay: inhibition of human LMPTP-A enzyme – biochemical, fluorescence intensity, uHTS, primary screen (AID 651560;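 note: plate controls were DMSO wells with enzyme plus substrate for no effect and substrate without enzyme for full effect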)). Details: recombinant LMPTP-A, OMFP fluorogenic substrate, at 20 µM, active compounds read high.
In short: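 Test system: LMPTP-A phosphatase enzyme; input: 0.625 nM LMPTP-A final; reagent: OMFP substrate, 400 µM final; compound dosing: 20 µM single dose, 3% DMSO; incubation: 50 min dark incubation at room temperature; measured by: endpoint fluorescence intensity from OMFP dephosphorylation; measure: % inhibition relative to no-enzyme and uninhibited control wells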

Structure (SMILES)	inhibition
O=[N+]([O-])c1cc([N+](=O)[O-])c(Nc2ccc(Cl)cc2)c([N+](=O)[O-])c1	inactive: 1.81%
CC(C)c1ccc(OP(C)(=O)Nc2ccc(SC(F)(F)F)cc2)cc1 (stereo unspecified)	inactive: 2.32%
CP(=O)(Nc1ccccc1F)Oc1ccccc1 (stereo unspecified)	inactive: -0.609%
Cc1c(NP(C)(=O)Oc2ccc(C(C)C)cc2)c(=O)n(-c2ccccc2)n1C (stereo unspecified)	inactive: -0.95%
O=[N+]([O-])c1cc([N+](=O)[O-])c(Nc2ccccn2)c([N+](=O)[O-])c1	inactive: 1.52%
CCc1ccc(OP(C)(=O)O)cc1	inactive: -3.16%
CP(=O)(Nc1ccccn1)Oc1ccccc1 (stereo unspecified)	inactive: -0.93%
COc1ccccc1OP(C)(=O)Nc1ccc(C)cc1C (stereo unspecified)	inactive: 1.08%
COc1ccccc1OP(C)(=O)Nc1ccc(Br)cc1 (stereo unspecified)	inactive: -1.88%
CN(C)CCOC(=O)C(O)(c1ccccc1)C1CCCC1 (stereo unspecified)	inactive: -1.36%
COc1ccc(OP(C)(=O)Nc2ccccn2)cc1 (stereo unspecified)	inactive: -0.255%
CCCCCCCCCCCCCCCC1C[N+](C)(C)CCOP(C)(=O)O1 (stereo unspecified)	inactive: -3.25%
CP(=O)(Nc1ccc(Cl)cc1Cl)Oc1ccccc1 (stereo unspecified)	inactive: -0.267%
CP(=O)(OCCOc1ccccc1)OCCOc1ccccc1	inactive: -0.209%
O=C1C(O)=C([N+](=O)[O-])C(=O)C(O)=C1[N+](=O)[O-]	inactive: 22.8%
Cc1cc(C)cc(OP(C)(=O)Nc2cccc(C(F)(F)F)c2)c1 (stereo unspecified)	inactive: 1.35%
COc1ccc(OP(C)(=O)Nc2ccccc2Br)cc1 (stereo unspecified)	inactive: -1.67%
COc1ccccc1OP(C)(=O)Nc1ccc(C)c(C)c1 (stereo unspecified)	inactive: -1.1%
CP(=O)(OC12CC3CC(CC(C3)C1)C2)OC12CC3CC(CC(C3)C1)C2	inactive: 1.1%
CCOC(=O)c1ccc(NP(C)(=O)Oc2ccc(Cl)cc2)cc1 (stereo unspecified)	inactive: -1.3%
CP(=O)(Nc1ccc(Cl)cc1)Oc1ccc(F)cc1 (stereo unspecified)	inactive: -0.374%
COc1ccccc1OP(C)(=O)Nc1ccccc1Br (stereo unspecified)	inactive: -0.459%
CC(C)(C)c1ccc(OP(C)(=O)O)cc1	inactive: -0.856%
CN(C)C(=O)c1c([N+](=O)[O-])cc([N+](=O)[O-])cc1[N+](=O)[O-]	inactive: 0.847%
CCN(CC)CC(O)COC(=O)C(O)(c1ccccc1)C1CCCCC1 (stereo unspecified)	inactive: -1.9%
COc1ccc(OP(C)(=O)Nc2ccc(Br)cc2)cc1 (stereo unspecified)	inactive: -1.17%

Structure (SMILES)	inhibition
CP(=O)(Oc1ccccc1)N1CCOC1=O (stereo unspecified)	inactive: -1.18%
CCc1ccc(OP(C)(=O)Nc2cccnc2)cc1 (stereo unspecified)	inactive: -0.238%
COc1ccccc1OP(C)(=O)Nc1c(C)n(C)n(-c2ccccc2)c1=O (stereo unspecified)	inactive: -1.62%
O=C(OCCCN1CCCC1)C(O)(c1ccccc1)C1CCCCC1 (stereo unspecified)	inactive: -3.21%
CCOP(C)(=S)SCC(=O)NC(C)C(=O)O (stereo unspecified)	inactive: -2.31%
CCOC(=O)c1ccc(NP(C)(=O)Oc2ccc(OC)cc2)cc1 (stereo unspecified)	inactive: -0.113%
O=[N+]([O-])c1cc([N+](=O)[O-])c(O)c([N+](=O)[O-])c1.c1ccc(Oc2ccncc2)cc1	inactive: -0.595%
CP(=O)(Nc1ccccn1)Oc1ccc(Cl)cc1 (stereo unspecified)	inactive: -1.08%
Cc1ccc(Nc2c([N+](=O)[O-])cc([N+](=O)[O-])cc2[N+](=O)[O-])cc1	inactive: 1.12%
Cc1cccc(C)c1OP(C)(=O)Nc1ccc(SC(F)(F)F)cc1 (stereo unspecified)	inactive: 1.06%
CP(=O)(Nc1ccc(SC(F)(F)F)cc1)Oc1ccc(Cl)cc1 (stereo unspecified)	inactive: 4.93%
CP(=O)(Oc1ccccc1)OC(c1ccccc1)C(F)(F)F (stereo unspecified)	inactive: -1.09%
CP(=O)(NC(=O)Nc1ccccc1)Oc1ccccc1 (stereo unspecified)	inactive: -2.69%
CCc1ccc(OP(C)(=O)N2CCN(c3ccc([N+](=O)[O-])cc3)CC2)cc1 (stereo unspecified)	inactive: 3.6%
Cc1cc(C)cc(OP(C)(=O)Nc2ccc(SC(F)(F)F)cc2)c1 (stereo unspecified)	inactive: 1.64%
CP(=S)(Nn1cnnc1)Oc1ccccc1 (stereo unspecified)	inactive: -0.365%
COc1ccccc1OP(C)(=O)Nc1ccccc1 (stereo unspecified)	inactive: -0.785%
CP(=O)(Nc1ccccc1Br)Oc1ccccc1 (stereo unspecified)	inactive: 0.0432%
CCOC(=O)c1ccc(NP(C)(=O)Oc2ccccc2)cc1 (stereo unspecified)	inactive: -0.506%
COc1ccccc1OP(C)(=O)Nc1ccc(C)cc1 (stereo unspecified)	inactive: -0.202%
Cc1ccc(NP(C)(=O)Oc2ccccc2)c(C)c1 (stereo unspecified)	inactive: -1.1%
COc1ccccc1OP(C)(=O)Nc1cc(Cl)ccc1C (stereo unspecified)	inactive: 1.73%
COc1ccc(OP(C)(=O)Nc2cccc(F)c2)cc1 (stereo unspecified)	inactive: -1.25%
Cc1cc(C)cc(OP(C)(N)=O)c1 (stereo unspecified)	inactive: -0.609%
O=[N+]([O-])c1cc([N+](=O)[O-])c(Nc2cccnc2)c([N+](=O)[O-])c1	inactive: -1.11%
CC(C)(C)c1ccc(OP(C)(=O)Nc2ccc(SC(F)(F)F)cc2)cc1 (stereo unspecified)	inactive: 2.2%

Structure (SMILES)	inhibition
Cc1cccc(C)c1OP(C)(N)=O (stereo unspecified)	inactive: -0.189%
O=[N+]([O-])c1ccc2c(c1)C=Nc1ccccc1O2	inactive: 1.06%
COc1ccccc1-c1ccccn1.O=[N+]([O-])c1cc([N+](=O)[O-])c(O)c([N+](=O)[O-])c1	inactive: -0.182%
CCN(CC)CCCOC(=O)C(O)(c1ccccc1)c1ccccc1	inactive: -1.4%
Cc1cc(C)cc(OP(C)(=O)Nc2ccccn2)c1 (stereo unspecified)	inactive: -0.429%
CP(=O)(Nc1cccc(Br)c1)Oc1ccccc1 (stereo unspecified)	inactive: 0.164%
Cc1ccc(C)c(NP(C)(=O)Oc2ccccc2)c1 (stereo unspecified)	inactive: 0.164%
COc1ccccc1OP(C)(=O)Nc1cccc(Br)c1 (stereo unspecified)	inactive: -0.833%
Cc1cc(C)cc(OP(C)(=O)Nc2ccc(C)cc2C)c1 (stereo unspecified)	inactive: -0.329%
CCOC(=O)c1ccc(NP(C)(=O)Oc2cc(C)cc(C)c2)cc1 (stereo unspecified)	inactive: -0.208%
CC1=NCCc2c1[nH]c1ccccc21.O=[N+]([O-])c1cc([N+](=O)[O-])c(O)c([N+](=O)[O-])c1	inactive: 0.341%
O=C(O)c1cccc(Nc2c([N+](=O)[O-])cc([N+](=O)[O-])cc2[N+](=O)[O-])c1	inactive: -0.769%
COc1ccccc1OP(C)(=O)Nc1c(C)cccc1C (stereo unspecified)	inactive: -2.78%
CN1CCCCC1COC(=O)C1(O)c2ccccc2CCc2ccccc21 (stereo unspecified)	inactive: -0.327%
CCCOc1ccc(NP(C)(=O)Oc2ccc(Cl)cc2)cc1 (stereo unspecified)	inactive: -0.509%
CP(=O)(Nc1ccc(SC(F)(F)F)cc1)Oc1ccccc1 (stereo unspecified)	inactive: 0.794%
COc1ccc(-c2ccccn2)cc1.O=[N+]([O-])c1cc([N+](=O)[O-])c(O)c([N+](=O)[O-])c1	inactive: -1.8%
CC1=C2N=C(C=C3N=C(C(C)=C4[N-][C@@](C)([C@@H]5N=C1[C@](C)(CCC(=O)NC[C@@H](C)OP(=O)([O-])O[C@H]1[C@@H](O)[C@@H](n6cnc7cc(C)c(C)cc76)O[C@@H]1CO)[C@H]5CC(N)=O)[C@@](C)(CC(N)=O)[C@@H]4CCC(N)=O)[C@@](C)(CC(N)=O)[C@@H]3CCC(N)=O)C(C)(C)[C@@H]2CCC(N)=O.[C-]#N.[Co+3]	inactive: 17.8%
O=[N+]([O-])c1cc([N+](=O)[O-])c(Nc2nnnn2CCO)c([N+](=O)[O-])c1	inactive: 0.848%
CCOC(=O)C(CC)C1=NC(C)(C)Cc2ccccc21.O=[N+]([O-])c1cc([N+](=O)[O-])c(O)c([N+](=O)[O-])c1 (stereo unspecified)	inactive: 1.23%
O=[N+]([O-])c1cc([N+](=O)[O-])c(-c2cnn(-c3ccccc3)c2)c([N+](=O)[O-])c1	inactive: 1.85%
Cc1nc2ccc3ccccc3c2s1.O=[N+]([O-])c1cc([N+](=O)[O-])c(O)c([N+](=O)[O-])c1	inactive: 1.3%
O=[N+]([O-])c1cc([N+](=O)[O-])c(-n2nnc3ccccc32)c([N+](=O)[O-])c1	inactive: -0.455%
CN(Cc1cccnc1)C(=O)COc1ccc(Cl)c(Cl)c1.O=[N+]([O-])c1cc([N+](=O)[O-])c(O)c([N+](=O)[O-])c1	inactive: -2.4%
